Source: patent US20210181183A1, “METHODS FOR DETERMINING SELECTIVITY OF TEST COMPOUNDS” (CEMM - FORSCHUNGSZENTRUM FÜR MOLEKULARE MEDIZIN GmBH, priority 2017, published 2021)

Tested on: CD79a+ cells over CD79a- cells of a diffuse large B-cell lymphoma patient
Assay: ex vivo selectivity of compounds to kill cancerous versus non-cancerous cells, excised lymph node of DLBCL patient (Example 8)
Type: cell-based, human
Conditions: fraction of live cancerous cells of live total cells relative to DMSO control; dissociated lymph node cells; <1 = selectively kills cancerous cells

`C[C@@H]1C[C@H]2[C@@H]3CCC4=CC(=O)C=C[C@]4(C)[C@@]3(F)[C@@H](O)C[C@]2(C)[C@@]1(O)C(=O)CO` [dexamethasone] gave a value/selectivity of 0.87.
